One data set addresses T1, Calmodulin (CaM) (mammalian).
T1 construct: also called free CaM; CaM alone
Description: periplasmic-extract ELISA on 0.1 ug coated Ca2+CaM or apoCaM, anti-HA detection. (In general: An ELISA detects its analyte on a solid surface through an enzyme-linked reagent.)

A further data set deals with T2, Nav1.8 CTD (UniProt Q9Y5Y9, in part).
T2 construct: domain: CTD; construct not described; also called C terminal of Nav1.8
Description: flow-cytometric FRET 2-hybrid in live cells, Nb17 with the Nav1.8 CTD.

The target of another data set is T3, CTNav1.4FL-CaM (mammalian).
T3 construct: also called full length C-terminal region of Nav1.4 in complex with calmodulin
Description: differential scanning fluorimetry (SYPRO Orange) of the CTNav-CaM+Nb complex.

Data set [1] addresses T4, CTNav1.4T-CaM (mammalian).
T4 construct: also called truncated C-terminal region of Nav1.4 in complex with calmodulin; CTNav1.4-CaM
The data set is described as above.

Another data set addresses T5, CTNav1.5T-CaM (mammalian).
T5 construct: also called CTNav1.5-CaM
Description: BLI (Octet RED96), Nb-His on Ni-NTA biosensor, CTNav-CaM as analyte, 25 C. Background: Biolayer interferometry detects binding as a change in optical thickness at a sensor tip.

Data set [2] concerns the target T4, CTNav1.4T-CaM. The data set is described as above.
The target in another data set is GST (UniProt P08515 = GST). The data set can be described thus: ELISA, purified Nb-His on coated protein.

The values below come from patent publication US20230406919A1 (Johns Hopkins, published 2023).

B1: Nb30 (VHH)
VHH: QVQLQESGGGLVQAGTSLVLSCAISGHTFSITGTAWFRQAPGKEREFVAGLTSSGDITHYASSVKGRFTISSDIAKNTVYLQMNNLKPEDTAVYYCTSVIRGRAGYDTWGQGTQVTVSS
notes: pHEN4 clone, HA-tagged, periplasmic extract; also called family 3
Consider B1, for which, in the data set with Calmodulin (CaM), the binding result is “no binding (tested: 1:100 dilution of periplasmic extract)”.

B2: Nb17 (VHH)
VHH: QVQLQESGGGLVQPGGSLRLSCRASGFTFANYDLAWTRQVPGKEREFVASIGVARGRTRTPATFYSASAKGRFTVSRDDARNTVYLQMNSLKPEDSAVYYCAAKDVEVSVATVEDYPYWGRGTQVTVSS
notes: Llama VHH expressed from pHEN4 (PelB leader, C-terminal HA tag) in E. coli TG1 periplasm; Used in the clone ELISA and the periplasmic-extract ELISA; also called Nb17 clone
Take B2: in the data set with Calmodulin (CaM), the binding result is reported as “no binding (tested: 1:100 dilution of periplasmic extract)”.

B3: Nb17 fused to Cerulean (VHH)
VHH: QVQLQESGGGLVQPGGSLRLSCRASGFTFANYDLAWTRQVPGKEREFVASIGVARGRTRTPATFYSASAKGRFTVSRDDARNTVYLQMNSLKPEDSAVYYCAAKDVEVSVATVEDYPYWGRGTQVTVSS
notes: Expressed in HEK293 cells for the flow-cytometric FRET 2-hybrid assay; also called Nb17-cerulean (FRET donor); not shown: cerulean fluorescent protein attached to the carboxy-terminus
Regarding B3, the binding result with Nav1.8 CTD was “no binding (tested: 1E+5 a.u. (Dfree))”.

B4: Nb17-His (VHH)
VHH: QVQLQESGGGLVQPGGSLRLSCRASGFTFANYDLAWTRQVPGKEREFVASIGVARGRTRTPATFYSASAKGRFTVSRDDARNTVYLQMNSLKPEDSAVYYCAAKDVEVSVATVEDYPYWGRGTQVTVSS
notes: Coding region re-amplified with primers A6E/p38 and cloned PstI/BstEII into pHEN6-TEV-His; also called purified Nb17; not shown: TEV site and 6x-His tag of the pHEN6-TEV-His vector
As a reminder, the Kd is the concentration at which binding is half-saturated. Usually koff stands for a measure of how fast the partners let go of each other. Low readings indicate slow dissociation, high ones fast dissociation. As for B4, the “shift in melting temperature (ΔTM)” value with CTNav1.4FL-CaM and with CTNav1.4T-CaM [1] was 17 ° C each time. Further, the figures for the Kd with CTNav1.5T-CaM and with CTNav1.4T-CaM [2] were 60.5 nM and 41.1 nM, respectively. Besides, the koff came out at 0.00107 s⁻¹ with CTNav1.5T-CaM and 0.000739 s⁻¹ with CTNav1.4T-CaM [2]. Also, the binding result with GST is given as “no binding”.

B5: Nb82 (VHH)
VHH: QVQLQESGGGLVQTGGSLRLSCKASGRAFARYDLAWSRQAPGKQREFVASIGVTRNPPYYSGSVKGRFTVSRDNAKETVYLQMNDLKPEDSAVYYCAAKDASVTVATIEDYPYWGRGTQVTVSS
notes: Llama VHH expressed from pHEN4 (C-terminal HA tag) in E. coli TG1 periplasm; also called Nb82 clone
On to B5, for which the binding result with Calmodulin (CaM) is “no binding (tested: 1:100 dilution of periplasmic extract)”.

B6: Nb82-His (VHH)
VHH: QVQLQESGGGLVQTGGSLRLSCKASGRAFARYDLAWSRQAPGKQREFVASIGVTRNPPYYSGSVKGRFTVSRDNAKETVYLQMNDLKPEDSAVYYCAAKDASVTVATIEDYPYWGRGTQVTVSS
notes: Subcloned into pHEN6-TEV-His; the HA-tag tail is probably replaced by TEV-His; also called purified Nb82; not shown: TEV site and 6x-His tag of the pHEN6-TEV-His vector
For the molecule B6, the results for the “shift in melting temperature (thermal shift)” value with CTNav1.4FL-CaM and with CTNav1.4T-CaM [1] were 12 ° C and 13 ° C, respectively. In addition, the Kd is 63.2 nM in the data set with CTNav1.5T-CaM and 50.2 nM with CTNav1.4T-CaM [2]. Besides, the values for the koff with CTNav1.5T-CaM and in the data set with CTNav1.4T-CaM [2] were 0.00113 s⁻¹ and 0.000451 s⁻¹, respectively. In the data set with GST, the binding result was “no binding”.
